# The list shows a part of the results, in another mix than the full data. The source made the active and inactive calls.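 How the source made its calls: active means activation factor of 2 or more at 20 µM, a signal rise over negative controls twice the positive control's; inactive means the rest.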
# Tested on: alkaline phosphatase, intestinal [Bos taurus]
# Assay: IAP enzyme activity enhancers – biochemical, bovine IAP, CDP-star luminescence, primary screen (AID 1016)
# Conditions: purified bovine IAP, 30 min, at 20 µM, fold of DMSO-control signal, blank-subtracted; stronger effect = higher value
row,SMILES,activation factor
1,CCOC(=O)c1ccc(NP(C)(=O)Oc2ccccc2)cc1 (centres undefined),inactive: 0.9
2,COc1ccccc1OP(C)(=O)Nc1ccc(C)cc1 (centres undefined),inactive: 0.9
3,Cc1ccc(NP(C)(=O)Oc2ccccc2)c(C)c1 (centres undefined),inactive: 1
4,CCN(CC)C(=S)SC(NC=O)C(Cl)(Cl)Cl (centres undefined),inactive
5,COc1ccccc1OP(C)(=O)Nc1cc(Cl)ccc1C (centres undefined),inactive: 1
6,CC(C)NC(=O)NP(=O)(Oc1ccccc1)Oc1ccccc1,inactive
7,O=[N+]([O-])c1cc([N+](=O)[O-])c(-c2ccn[nH]2)s1,inactive
8,COc1ccc(OP(C)(=O)Nc2cccc(F)c2)cc1 (centres undefined),inactive: 1
9,Cc1cc(C)cc(OP(C)(N)=O)c1 (centres undefined),inactive: 1.2
10,CC(C)(C)c1ccc(OP(C)(=O)Nc2ccc(SC(F)(F)F)cc2)cc1 (centres undefined),inactive: 1
11,Cc1cccc(C)c1OP(C)(N)=O (centres undefined),inactive: 1.2
12,Cc1ccc2nc3c(c(C)c2c1)CC(C(Cl)Cl)S3 (centres undefined),inactive
13,O=[N+]([O-])c1ccc2c(c1)C=Nc1ccccc1O2,inactive: 0.9
14,COc1ccc(N/C(=N/P(=O)(N2CCOCC2)N2CCOCC2)N2CCOCC2)cc1,inactive
15,Cc1c2c(nc3ccccc13)SC(C(Cl)Cl)C2 (centres undefined),inactive
16,O=C(OC1CN2CCC1CC2)C12CC3CC(CC(C3)C1)C2 (centres undefined),inactive
17,CCN(CC)CCCOC(=O)C(O)(c1ccccc1)c1ccccc1,inactive: 1.1
18,Cc1cc(=O)[nH]c(N[N+](=O)[O-])n1,inactive
19,COc1ccc2nc(NP(=O)(c3ccccc3)c3ccccc3)sc2c1,inactive
20,CCOP(C)(=S)SCC(=O)NC(C)C(=O)O (centres undefined),inactive: 1
21,CCOC(=O)c1ccc(NP(C)(=O)Oc2ccc(OC)cc2)cc1 (centres undefined),inactive: 0.9
22,CCC(C)N(CC(C)C)C(=S)SC(NC(C)=O)C(Cl)(Cl)Cl (centres undefined),inactive

row,SMILES,activation factor
1,CP(=O)(Nc1ccccn1)Oc1ccc(Cl)cc1 (centres undefined),inactive: 0.9
2,Cc1cccc(C)c1OP(C)(=O)Nc1ccc(SC(F)(F)F)cc1 (centres undefined),inactive: 1
3,COP1(=S)c2c(C)nn(CCC#N)c2N=C(c2ccc(F)cc2)N1C (centres undefined),inactive
4,CP(=O)(Oc1ccccc1)OC(c1ccccc1)C(F)(F)F (centres undefined),inactive: 1.2
5,CP(=O)(NC(=O)Nc1ccccc1)Oc1ccccc1 (centres undefined),inactive: 0.9
6,Cc1cc(C)cc(OP(C)(=O)Nc2ccc(SC(F)(F)F)cc2)c1 (centres undefined),inactive: 1
7,CP(=S)(Nn1cnnc1)Oc1ccccc1 (centres undefined),inactive: 0.9
8,COc1ccccc1OP(C)(=O)Nc1ccccc1 (centres undefined),inactive: 0.9
9,CP(=O)(Nc1ccccc1Br)Oc1ccccc1 (centres undefined),inactive: 0.9
10,Cc1cc(SC(NC(=O)c2ccccc2)C(Cl)(Cl)Cl)nc(C(C)C)n1 (centres undefined),inactive
11,O=P1(Nc2ncccn2)COc2ccccc2OC1,inactive
12,COc1ccccc1OP(C)(=O)Nc1c(C)cccc1C (centres undefined),inactive: 1
13,CN1CCCCC1COC(=O)C1(O)c2ccccc2CCc2ccccc21 (centres undefined),inactive: 1.1
14,CP(=O)(Nc1ccc(SC(F)(F)F)cc1)Oc1ccccc1 (centres undefined),inactive: 0.7
15,CCCOc1ccc(NP(C)(=O)Oc2ccc(Cl)cc2)cc1 (centres undefined),inactive: 1
16,Cc1nn(-c2ccccc2)c2c1P(=O)(N1CCOCC1)N(C)C(c1ccccc1)=N2 (centres undefined),inactive
17,CN(C)C1(CNC(=O)c2ccc(S(C)(=O)=O)cc2)CCCCC1,inactive
18,Cc1nc2ccc3ccccc3c2s1.O=[N+]([O-])c1cc([N+](=O)[O-])c(O)c([N+](=O)[O-])c1,inactive: 0.8
19,O=P1(Nc2ccccn2)COc2ccccc2OC1,inactive
20,O=[N+]([O-])c1cc([N+](=O)[O-])c(-n2nnc3ccccc32)c([N+](=O)[O-])c1,inactive: 1.2
21,CP(=O)(Nc1cccc(Br)c1)Oc1ccccc1 (centres undefined),inactive: 1
22,Cc1cc(C)cc(OP(C)(=O)Nc2ccccn2)c1 (centres undefined),inactive: 0.9

row,SMILES,activation factor
1,Cc1ccc(C)c(NP(C)(=O)Oc2ccccc2)c1 (centres undefined),inactive: 0.9
2,CCOP(=O)(Nc1cccc2ccccc12)OCC,inactive
3,Cc1cc(C)cc(OP(C)(=O)Nc2ccc(C)cc2C)c1 (centres undefined),inactive: 0.9
4,CCOC(=O)c1ccc(NP(C)(=O)Oc2cc(C)cc(C)c2)cc1 (centres undefined),inactive: 0.8
5,CC1=NCCc2c1[nH]c1ccccc21.O=[N+]([O-])c1cc([N+](=O)[O-])c(O)c([N+](=O)[O-])c1,inactive: 1.1
6,O=P(Nc1nccs1)(Oc1ccccc1)Oc1ccccc1,inactive
7,CCN(CC)CCCOC(=O)C(O)(c1ccccc1)C1CCCCC1 (centres undefined),inactive
8,CCC(=O)N1C2C3N(C(=O)CC)C1C1N(C(=O)CC)C(C(N1C(=O)CC)N3C(=O)CC)N2C(=O)CC,inactive
9,Cc1ccc(OP(=O)(Nc2ccccn2)Oc2ccc(C)cc2)cc1,inactive
10,CC(=O)NC(SC(=S)N(CC(C)C)CC(C)C)C(Cl)(Cl)Cl (centres undefined),inactive
11,CP(=O)(Nc1ccccc1)Oc1ccc(F)cc1 (centres undefined),inactive: 1
12,O=C(NC1CCS(=O)(=O)C1)NP(=S)(Oc1ccccc1)Oc1ccccc1 (centres undefined),inactive
13,COc1ccc(OP(C)(=O)Nc2ccc(SC(F)(F)F)cc2)cc1 (centres undefined),inactive: 1.3
14,CCOC(=O)c1ccc(NP(C)(=O)Oc2ccc(F)cc2)cc1 (centres undefined),inactive: 1
15,O=C(OCCN1CCN(CCOCc2ccccc2)CC1)C(O)(c1ccccc1)c1ccccc1,inactive: 0.7
16,CC(=O)Nc1ccc(Oc2c([N+](=O)[O-])cc([N+](=O)[O-])cc2[N+](=O)[O-])cc1,inactive
17,O=P1(Nc2nc3ccc(Cl)cc3s2)COc2ccccc2O1 (centres undefined),inactive
18,CC(C)c1ccc(OP(C)(=O)Nc2ccc(SC(F)(F)F)cc2)cc1 (centres undefined),inactive: 0.9
19,CP(=O)(Nc1ccccc1F)Oc1ccccc1 (centres undefined),inactive: 0.9
20,CP(=O)(Nc1ccc2c(c1)OCCO2)Oc1ccccc1 (centres undefined),inactive: 1
21,Cc1ccccc1NP(C)(=O)Nc1ccccc1C,inactive: 1
22,CC(C)C(=O)NC(Sc1ccccc1)C(Cl)(Cl)Cl (centres undefined),inactive

row,SMILES,activation factor
1,O=P(Nc1nccs1)(c1ccccc1)c1ccccc1,inactive
2,CCOP(C)(=S)SCC(=O)NC(C)(CC)C(=O)O (centres undefined),inactive: 1.1
3,O=[N+]([O-])c1cc([N+](=O)[O-])c(NCC2CCS(=O)(=O)C2)c([N+](=O)[O-])c1 (centres undefined),inactive: 1
4,CC(=O)NC(SC(=S)N(C)C)C(Cl)(Cl)Cl (centres undefined),inactive
5,O=C(OC1CN2CCC1CC2)c1cccc(Cl)c1 (centres undefined),inactive
6,COc1ccc(OP(C)(=O)Nc2cccc(Br)c2)cc1 (centres undefined),inactive: 1
7,COc1ccc(NP(C)(=O)Oc2ccccc2OC)cc1 (centres undefined),inactive: 1
8,CN(C)CCOC(=O)C(O)(c1ccccc1)C1CCCCC1 (centres undefined),inactive
9,O=[N+]([O-])c1ncn(CCn2ncnc2[N+](=O)[O-])n1,inactive
10,CP(=O)(OC12CC3CC(CC(C3)C1)C2)OC12CC3CC(CC(C3)C1)C2,inactive: 1
11,CCOC(=O)c1ccc(NP(C)(=O)Oc2ccc(Cl)cc2)cc1 (centres undefined),inactive: 1
12,CCN(/C(=N/P(=O)(N1CCOCC1)N1CCOCC1)N1CCOCC1)c1ccc(OC)cc1,inactive
13,CP(=O)(Nc1ccc(Cl)cc1)Oc1ccc(F)cc1 (centres undefined),inactive: 1
14,CC(C)(C)c1ccc(OP(C)(=O)O)cc1,inactive: 0.9
15,COc1ccccc1OP(C)(=O)Nc1ccccc1Br (centres undefined),inactive: 1
16,CC1CCN(C(=O)Oc2c(Cl)cc(Cl)c3cccnc23)CC1,inactive
17,CN(C)C(=O)c1c([N+](=O)[O-])cc([N+](=O)[O-])cc1[N+](=O)[O-],inactive: 0.9
18,CC(C)=N/N=C(\N)N[N+](=O)[O-],inactive
19,CN(C)C(=O)OCCc1n(C)cc[n+]1C,inactive
20,CCN(CC)CC(O)COC(=O)C(O)(c1ccccc1)C1CCCCC1 (centres undefined),inactive
21,COc1ccc(OP(C)(=O)Nc2ccc(Br)cc2)cc1 (centres undefined),inactive: 1
22,CP(=O)(Oc1ccccc1)N1CCOC1=O (centres undefined),inactive: 1.1

row,SMILES,activation factor
1,Cc1ccc(NP(=O)(Oc2ccccc2)Oc2ccccc2)nc1,inactive
2,CCc1ccc(OP(C)(=O)Nc2cccnc2)cc1 (centres undefined),inactive: 1
3,COc1ccccc1OP(C)(=O)Nc1c(C)n(C)n(-c2ccccc2)c1=O (centres undefined),inactive: 0.9
4,CC(=O)N1C2C3N(C(C)=O)C1C1N(C(C)=O)C(C(N1C(C)=O)N3C(C)=O)N2C(C)=O,inactive
5,O=C(NC(Sc1ccncn1)C(Cl)(Cl)Cl)c1ccccc1 (centres undefined),inactive
6,O=[N+]([O-])c1cc([N+](=O)[O-])c(Nc2ccccn2)c([N+](=O)[O-])c1,inactive: 0.7
7,Cc1c(NP(C)(=O)Oc2ccc(C(C)C)cc2)c(=O)n(-c2ccccc2)n1C (centres undefined),inactive: 1
8,CCc1ccc(OP(C)(=O)O)cc1,inactive: 1
9,CP(=O)(Nc1ccccn1)Oc1ccccc1 (centres undefined),inactive: 0.9
10,COc1ccccc1OP(C)(=O)Nc1ccc(C)cc1C (centres undefined),inactive: 0.9
11,Cc1ccc(N/C(=N/P(=O)(N2CCOCC2)N2CCOCC2)N2CCOCC2)cc1,inactive
12,CN(C)CCOC(=O)C(O)(c1ccccc1)C1CCCC1 (centres undefined),inactive: 0.9
13,CN1CCCC(OC(=O)C(c2ccccc2)c2ccccc2)C1 (centres undefined),inactive
14,COc1ccc(OP(C)(=O)Nc2ccccn2)cc1 (centres undefined),inactive: 0.9
15,Cc1nc2ccc3ccccc3c2o1.O=[N+]([O-])c1cc([N+](=O)[O-])c(O)c([N+](=O)[O-])c1,inactive: 1
16,CP(=O)(OCCOc1ccccc1)OCCOc1ccccc1,inactive: 1
17,CP(=O)(Nc1ccc(Cl)cc1Cl)Oc1ccccc1 (centres undefined),inactive: 1
18,Cc1cc(C)cc(OP(C)(=O)Nc2cccc(C(F)(F)F)c2)c1 (centres undefined),inactive: 1
19,COc1ccc(OP(C)(=O)Nc2ccccc2Br)cc1 (centres undefined),inactive: 0.7
20,Cc1cc(SC(NC(=O)c2ccc(F)cc2)C(Cl)(Cl)Cl)ncn1 (centres undefined),inactive
21,COc1ccccc1OP(C)(=O)Nc1ccc(C)c(C)c1 (centres undefined),inactive: 1

# — PubChem BioAssay AID1016 (Sanford-Burnham Center for Chemical Genomics, 2008)
